The target in assay [1] is Sigma non-opioid intracellular receptor 1 (Cavia porcellus) (UniProt Q60492). The experiment in a line: Displacement of [3H]-(+)-pentazocine from sigma1-type […] receptor in guinea pig cortex membranes at 1 uM after 120 mins by solid scintillation counting. The format is cell membranes. On the technique in general: Displacement assays read how much labelled ligand stays bound in the presence of the test substance.

Sequences of proteins named here, by UniProt entry; tags and fusion partners are left off. A change or cut given only in a name is not applied to a line headed by its entry.
UniProt Q60492, whole entry, looked up: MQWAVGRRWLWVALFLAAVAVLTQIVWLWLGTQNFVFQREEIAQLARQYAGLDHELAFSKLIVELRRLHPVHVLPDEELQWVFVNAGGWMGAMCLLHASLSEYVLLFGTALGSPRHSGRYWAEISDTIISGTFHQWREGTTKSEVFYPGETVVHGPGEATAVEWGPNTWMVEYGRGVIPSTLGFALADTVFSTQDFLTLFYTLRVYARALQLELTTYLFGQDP
UniProt P41145: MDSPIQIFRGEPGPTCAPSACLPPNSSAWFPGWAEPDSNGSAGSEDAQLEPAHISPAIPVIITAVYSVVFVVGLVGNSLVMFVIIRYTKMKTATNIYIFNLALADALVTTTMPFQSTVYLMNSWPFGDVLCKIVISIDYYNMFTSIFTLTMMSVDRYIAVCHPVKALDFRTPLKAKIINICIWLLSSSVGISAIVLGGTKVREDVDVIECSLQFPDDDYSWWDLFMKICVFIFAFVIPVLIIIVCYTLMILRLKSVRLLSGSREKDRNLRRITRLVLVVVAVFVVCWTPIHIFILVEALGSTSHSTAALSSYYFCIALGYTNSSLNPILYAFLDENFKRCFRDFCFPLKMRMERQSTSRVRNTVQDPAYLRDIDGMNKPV

Assay [2] has as its target Kappa-type opioid receptor (Homo sapiens, UniProt P41145). Nature of the assay: Agonist activity at recombinant human kappa-type opioid receptor expressed in HEK293 cells at 1 uM after 30 mins by [35S]GTPgammaS binding assay. The format is functional, cell-based. A general note: Binding of GTPγS marks nucleotide exchange on a G protein.

A word on the inhibition: it is how much of the control response was suppressed. Consider `O=C(Cc1ccc(Cl)c(Cl)c1)N1CCN[C@H]2CCC[C@H](N3CCCC3)[C@H]21`, for which the inhibition in assay [1] amounted to 6%. The Activity in assay [2] was 89%.
Regarding `CN(C(=O)Cc1ccccc1)[C@H]1CC[C@@]2(CCCO2)C[C@@H]1N1CCCC1`, in assay [2], the Activity worked out at 100%.
Consider `COC(=O)N1CCN(C(=O)Cc2ccc(Cl)c(Cl)c2)[C@@H]2[C@@H](N3CCCC3)CCC[C@@H]21`, for which the inhibition in assay [1] was 0%.

The record behind these values is ChEMBL document CHEMBL4007424, “Design and Synthesis of Enantiomerically Pure Decahydroquinoxalines as Potent and Selective κ-Opioid Receptor Agonists with Anti-Inflammatory Activity in Vivo” (J Med Chem, 2017).
